Biological target: T1, Salmonella typhimurium ArnB (Salmonella typhimurium, UniProt Q8ZNF3)
T1 construct: GlySer-His6 (GlySerHisHisHisHisHisHis) (C); made in house; host or cells: E. coli BL21 (DE3), vector pSB3 (modified pET26b)
Experiment: ArnB aminotransfer half-reaction assay (absorbance of PMP/PLP cofactor forms at 340 nm / 430 nm)
Type: biochemical
Conditions: addition of α-ketoglutarate; 340 nm peak reduced, 430 nm increased
Experimental: Aminotransfer half-reactions were measured at an enzyme concentration of 23 μM and substrates were added to a final concentration of 250 μM, unless otherwise indicated. Reaction progress was followed by moniotoring the absorbance maxima of the PMP or PLP cofactor forms at 340 nm or 430 nm, respectively. Resulting time courses were fit to eq. 1, describing a single-exponential decay,
Yobs=((Y0−Y∞)e^−kt)+Y∞ (Eq. 1),
where Yobs=observed signal, Y0=signal at time zero, Y∞=signal at infinite time, k is the apparent first-order rate constant, and t is time. Nonlinear least-squares fits were performed with Kaleidagraph v3.51 (Synergy Software, Reading, Pa.).

By UniProt entry, the sequences of proteins in these tests, tags left out. Where a name states a change or a piece, a line headed by the entry shows the natural chain unless it says otherwise.
UniProt Q8ZNF3: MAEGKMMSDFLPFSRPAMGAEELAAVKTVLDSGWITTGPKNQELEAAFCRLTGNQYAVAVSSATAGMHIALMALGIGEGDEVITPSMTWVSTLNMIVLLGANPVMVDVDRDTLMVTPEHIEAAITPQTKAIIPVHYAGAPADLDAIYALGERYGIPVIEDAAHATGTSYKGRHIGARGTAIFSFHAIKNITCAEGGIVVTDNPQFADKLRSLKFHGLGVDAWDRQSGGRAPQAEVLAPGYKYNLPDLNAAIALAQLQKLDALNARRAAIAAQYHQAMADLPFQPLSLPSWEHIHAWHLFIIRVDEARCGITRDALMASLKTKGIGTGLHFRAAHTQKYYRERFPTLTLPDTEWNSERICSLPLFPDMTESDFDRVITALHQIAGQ

Substance: α-ketoglutarate
- conversion of E•PMP ArnB to the internal aldimine (E-PLP) form: consistent with conversion to the internal aldimine or E-PLP form
